The term inhibition denotes the drop in the measured response relative to a control, in per cent.

The list shows a part of the results, in another mix than the full data. Activity calls are given as the source filed them.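 Rule for the calls: active = inhibition above the mean of compound-free control plate wells plus 3 SD (cut at about 14% in these data); inactive = the rest.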

In the experiment the target is Collagenase 3 (Homo sapiens) (UniProt P45452). Put plainly: inhibition of MMP13 collagenase activity – biochemical, FRET peptide cleavage, primary screen (AID 570).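 Note: 0% = DMSO wells and 100% = wells with reference MMP-13 inhibitor after basal subtraction.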 Conditions: MMP-13 fTHP FRET cleavage, Mca fluorescence; at 4 µM; active compounds read high.
Consider `Cc1nc2ccc3ccccc3c2s1.O=[N+]([O-])c1cc([N+](=O)[O-])c(O)c([N+](=O)[O-])c1`, for which the inhibition is inactive: 3.2%.
The figure for `Cc1ccc(C)c(NP(C)(=O)Oc2ccccc2)c1` (stereo not drawn) is inactive: 1.5%; for `COc1ccccc1OP(C)(=O)Nc1ccc(C)cc1` (stereo not drawn) it is inactive: 5.1%; for `Cc1ccc(NP(C)(=O)Oc2ccccc2)c(C)c1` (stereo not drawn) it is inactive: 3.3%.
On to `CP(=O)(NC(=O)Nc1ccccc1)Oc1ccccc1` (stereo not drawn), for which the inhibition was inactive: -0.6%.
In the case of `CCOP(C)(=S)SCC(=O)NC(C)C(=O)O` (stereo not drawn), the inhibition is inactive: -4.8%.
Turning to `CP(=S)(Nn1cnnc1)Oc1ccccc1` (stereo not drawn), the inhibition is inactive: 1.3%.
`COc1ccccc1OP(C)(=O)Nc1c(C)n(C)n(-c2ccccc2)c1=O` (stereo not drawn): the inhibition was inactive: -0.7%.
In the case of `CP(=O)(Oc1ccccc1)N1CCOC1=O` (stereo not drawn), the inhibition is inactive: -2.8%.
Turning to `CCN(CC)CC(O)COC(=O)C(O)(c1ccccc1)C1CCCCC1` (stereo not drawn), the inhibition was inactive: 1.9%.
To `CP(=O)(Nc1ccccn1)Oc1ccccc1` (stereo not drawn) belongs inactive: 2%; to `COc1ccccc1OP(C)(=O)Nc1ccc(C)c(C)c1` (stereo not drawn), inactive: -5%.
For `Cc1nc2ccc3ccccc3c2o1.O=[N+]([O-])c1cc([N+](=O)[O-])c(O)c([N+](=O)[O-])c1`, the inhibition was inactive: 6.6%.
Consider `CP(=O)(Nc1ccccc1F)Oc1ccccc1` (stereo not drawn), for which the inhibition is inactive: -4.9%.
For the molecule `CCOP(C)(=S)SCC(=O)NC(C)(CC)C(=O)O` (stereo not drawn), the inhibition is inactive: 2.2%.
The figure for `Cc1ccccc1NP(C)(=O)Nc1ccccc1C` is inactive: 6.6%.
Take `CP(=O)(Nc1ccc2c(c1)OCCO2)Oc1ccccc1` (stereo not drawn): the inhibition is inactive: 3.5%.
As for `CN(C)CCOC(=O)C(O)(c1ccccc1)C1CCCCC1` (stereo not drawn), the inhibition is inactive: -4.5%.

For the origin of these results see PubChem BioAssay AID570 (The Scripps Research Institute Molecular Screening Center, 2006).
